From article PMC3191772
Values joined by “and” are separate entries in the source; they are usually repeats but may differ in a detail not shown here. Identical values can stand only once.

Biological target: Hsp27 labeled with acrylodan (UniProt P04792)
Experiment: other fluorescence titration; 1 μM AC-Hsp27 held constant, F-actin varied; separate samples incubated overnight at 37°C in F-buffer; acrylodan fluorescence at 485 nm (excitation 395 nm); apparent constant, quadratic binding fit with the actin/Hsp27 stoichiometry fixed at 1.0 or varied

**Q.** “F-actin (actin filament polymerized from rabbit skeletal muscle actin) (from UniProt P68135 1-377) (natural protein; other documents disagree on this pair)” was tested. Which Kd did it give?
**A.** 5.3 µM and 3 to 5.6 µM
